What was measured:
[1] = molecular target: T1, Acetylcholinesterase (Homo sapiens, UniProt P22303); test: Reactivation of VX-inhibited human acetylcholinesterase assessed as dissociation constant incubated for 60 mins using ATChI substrate by DTNB dye based UV-visible spectrophotometry
[2] = molecular target: T1, Acetylcholinesterase; test: Reactivation of sarin-inhibited human acetylcholinesterase assessed as dissociation constant incubated for 60 mins using ATChI substrate by DTNB dye based UV-visible spectrophotometry

Structure (SMILES): CCOC(=O)c1csc(NC(=O)C[n+]2cccc(/C=N/O)c2)n1
- Kd [1]: 58.4 µM
- Kd [2]: 75.5 µM

Source: ChEMBL document CHEMBL3596175, “Synthesis and in vitro kinetic evaluation of N-thiazolylacetamido monoquaternary pyridinium oximes as reactivators of sarin, O-ethylsarin and VX inhibited human acetylcholinesterase (hAChE)” (2015)
